AlphaSeq binding of Ab-14 light chain variants to a spike HR2 peptide

Source: Engelhart et al. 2022 (doi:10.1038/s41597-022-01779-4), MIT Lincoln Laboratory and A-Alpha Bio; data file from the FLAb repository.

The target is the same throughout: PDVDLGDISGINAS, from the HR2 region of SARS-CoV-2 spike.

Ab-14 is the parent antibody, in scFv form: VH, then the linker GGGGSGGGGSGGGGS, then VL. The heavy chain is unchanged in all variants.
VH: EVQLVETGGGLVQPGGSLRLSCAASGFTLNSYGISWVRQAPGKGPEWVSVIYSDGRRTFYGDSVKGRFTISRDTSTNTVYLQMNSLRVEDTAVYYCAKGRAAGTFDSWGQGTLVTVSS
VL: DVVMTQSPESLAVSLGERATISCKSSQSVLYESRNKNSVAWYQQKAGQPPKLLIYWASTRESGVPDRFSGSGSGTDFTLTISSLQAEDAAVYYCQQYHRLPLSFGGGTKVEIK

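The starting antibody came from a phage panning campaign against this peptide. Library AAYL50 holds single substitutions and randomly drawn double and triple substitutions in the CDRs. The assay is AlphaSeq: two haploid yeast populations carry antibody and antigen on their surface. Mating (16 h, 30 °C) was followed by selection of diploids and sequencing of their barcodes. Scores were corrected for input abundance and mapped to Kd with protein pairs of known affinity run in the same pool. Mating was done three times.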

Each variant is given by its three light chain CDRs, as the data file delimits them; those of the parent are KSSQSVLYESRNKNSVA, WASTRES, QQYHRLPLS. Scale: log10 of Kd in nM, estimated from mating counts; low values are strong binders. Replicates are averaged; those with no signal do not enter the mean. "ND" means that the variant was in the library but no mating with the target was seen in that replicate; the authors take this as a sign of poor binding, and no number exists.

KSSQSPLYESYPKNSVA / WASTRES / QQYHRLPLS: 0.99, 1.04, 0.97 (mean 1.00; controls 0 of 9).
KASQSKLYESRNKNSVA / WASGRES / QQYHRLPLS: ND, 3.76, ND (controls 1 of 9).
KSSQSVLHESRNKNSVA / WASTRES / QQKHRLPLS: 5.93, ND, ND (controls 2 of 9).
KMSQSVLYESRNKNSVA / WASTRES / QQYDRLWLS: ND, 3.20, ND (controls 2 of 9).
KSSQSVLYESRNKNSVA / WASTRCS / QQYHRLPLS: ND, ND, ND (controls 0 of 9).
KSSQSVLYEDRNKNSVF / WASHRES / QQYHRLPLS: ND, ND, 5.45 (controls 2 of 9).
KSSQSVYYELINKNSVA / WASTRES / QQYHRLPLS: 0.82, 0.44, 0.59 (mean 0.62; controls 0 of 9).
KSAQSVLYEFRNKNSVA / WASTRES / QQYHLLPLS: ND, 4.25, 3.80 (mean 4.02; controls 1 of 9).
KSSQWVLYESRNKNPVA / WASTIES / QQYHRLPLS: ND, 4.34, 3.68 (mean 4.01; controls 1 of 9).
KSSKSVLHESRNKNSVA / WASTRES / QQYHRMPLS: 1.86, 1.55, 1.69 (mean 1.70; controls 3 of 9).
NSSQSVLYESRNKNSVA / WASTVES / QLYHRLPLS: 4.60, ND, ND (controls 2 of 9).
KSSQSVLYESRPKNSVA / WACTRES / QDYHRLPLS: ND, ND, ND (controls 5 of 9).
WASQSVLYESRNKNSVA / WASTRKS / QQYHRLPLS: ND, ND, 3.80 (controls 1 of 9).
KSSQSVLYESPNKNSVA / WKDTRES / QQYHRLPLS: 3.02, ND, ND (controls 0 of 9).
KSSQSVLYRDRNKNSVA / WASTRES / QQYHRLPLE: 2.02, 1.85, 2.21 (mean 2.03; controls 1 of 9).
KSSQSVLYESRIKNSVA / MASTRES / QQFHRLPLS: 5.31, ND, ND (controls 0 of 9).
KSSQSVLYEFRNKNSVA / WESTRES / QQYHRLPGS: ND, ND, ND (controls 0 of 9).
KSSQSVLDESRNKNSVA / WASTRGS / QQYHRLPES: 0.73, 0.78, 0.78 (mean 0.77; controls 3 of 9).
KSSQSVLYRSRNKNSCA / WAKTRES / QQYHRLPLS: ND, ND, 3.84 (controls 0 of 9).
KSSQSVLYESRNKNSVE / WCSTRNS / QQYHRLPLS: ND, ND, ND (controls 1 of 9).
KSSQSVLYESRNKNEVA / WASTRES / QQMHRCPLS: ND, ND, ND (controls 2 of 9).
KSSQSVLYESRNCNSVA / WARTRES / QQYHRLPLS: 2.03, 1.75, 2.30 (mean 2.03; controls 1 of 9).
KSSQRVLAESRNKNSVA / WASTRES / QQYHRLPLP: 4.02, 5.13, ND (mean 4.57; controls 0 of 9).
KSSQSVLYEARNKNSVN / WASTRES / QQYHILPLS: ND, ND, ND (controls 0 of 9).
KSSQCVLYESRNKNSVA / WASTREP / QQYHALPLS: 2.57, 2.35, 3.37 (mean 2.76; controls 3 of 9).
CSIQSVLYESRNKNSVK / WASTRES / QQYHRLPLS: 0.80, 1.64, 1.64 (mean 1.36; controls 0 of 9).
KSSDSGLYTSRNKNSVA / WASTRES / QQYHRLPLS: 0.58, 0.83, 0.18 (mean 0.53; controls 0 of 9).
KSSQSVLYESRNKFSVA / WASTSES / QQYHRLPLA: 1.22, 1.28, 1.35 (mean 1.28; controls 1 of 9).
KSSQSVLYNSRPKNSVE / WASTRES / QQYHRLPLS: ND, 4.15, 5.48 (mean 4.82; controls 2 of 9).
KNSQSVLYEPRNKNSVA / WASTRES / QQYHRKPLS: 4.19, ND, ND (controls 4 of 9).
KSAQSVLYESRNKNSVF / WASTRES / QQYHRLPLF: ND, ND, ND (controls 0 of 9).
KVSQSVLYESRNCNSVA / WASTRES / QQYARLPLS: 0.26, 0.52, 0.45 (mean 0.41; controls 5 of 9).
KSSQSVLYESRNKNSCA / WASTREC / QQYHRMPLS: 3.56, 3.38, ND (mean 3.47; controls 3 of 9).
KSSQSVLNESCNKNSVA / WASRRES / QQYHRLPLS: 3.45, 3.28, 3.68 (mean 3.47; controls 8 of 9).
KSSQSVLYESRNKNSVA / WAGTRES / QQYHQLPLS: 1.28, 1.40, 1.13 (mean 1.27; controls 5 of 9).
KSSQSVLYESCNKNSVA / WESCRES / QQYHRLPLS: 2.05, ND, ND (controls 0 of 9).
KSSQSVQYESRNKNSVA / CASTREN / QQYHRLPLS: 2.46, 2.06, 2.46 (mean 2.33; controls 3 of 9).

The opening 4 entries, copied out:

CDR-L1,CDR-L2,CDR-L3,log10 Kd (nM) by replicate,"mean, log10 nM",empty controls
KSSQSPLYESYPKNSVA,WASTRES,QQYHRLPLS,"0.99, 1.04, 0.97",1.00,0/9
KASQSKLYESRNKNSVA,WASGRES,QQYHRLPLS,"ND, 3.76, ND",3.76,1/9
KSSQSVLHESRNKNSVA,WASTRES,QQKHRLPLS,"5.93, ND, ND",5.93,2/9
KMSQSVLYESRNKNSVA,WASTRES,QQYDRLWLS,"ND, 3.20, ND",3.20,2/9

Parent in this assay: reference entry 0.65, copy in this library 1.68. Three control strains display no target. For library AAYL50, 18% of the pairings with them gave a signal, with a median of 4.19 and one signal in twenty below 2.99, so weak values seen in few replicates may be background. For each scFv, signals with the empty controls are counted beside the result.